scFv variants of Ab-14 (light chain) against a SARS-CoV-2 spike peptide

Reference: Engelhart et al. 2022, doi:10.1038/s41597-022-01779-4. File: FLAb, binding data.

Antigen: PDVDLGDISGINAS, a 14-residue peptide of the SARS-CoV-2 spike HR2 region.

Parent: Ab-14, a human scFv built as VH, a 15-residue (Gly4Ser)3 linker, VL. Only the CDRs of the light chain vary.
VH: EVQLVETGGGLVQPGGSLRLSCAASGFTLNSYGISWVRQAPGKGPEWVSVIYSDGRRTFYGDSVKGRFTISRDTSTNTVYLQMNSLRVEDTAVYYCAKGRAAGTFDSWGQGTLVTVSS
VL: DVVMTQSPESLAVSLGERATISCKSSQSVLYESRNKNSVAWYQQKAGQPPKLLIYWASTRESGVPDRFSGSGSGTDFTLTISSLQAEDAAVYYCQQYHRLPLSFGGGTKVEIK

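The starting antibody came from a phage panning campaign against this peptide. In library AAYL50, one, two or three CDR residues were substituted; doubles and triples were drawn at random. AlphaSeq pools MATa yeast showing the antibodies with MATalpha yeast showing the peptide. Binding brings cells together so that they mate, and sequencing counts the barcode pairs among the diploids. Each replicate has its own calibration line, from reference interactions of the BCL2 family. Mating was done three times.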

Each variant is given by its three light chain CDRs, as the data file delimits them; those of the parent are KSSQSVLYESRNKNSVA, WASTRES, QQYHRLPLS.
The read-out is the apparent dissociation constant on a log10 scale (nM): the lower, the stronger.
"n.d." marks a missing value. The strain was present, yet no cells mated with the target were sequenced in that replicate, which points to weak or no binding.
As a blank, each scFv also met three strains without target: over library AAYL50, 18% of these pairings were detected, typically at 4.19 and seldom below 2.99. Also given: how often the same scFv was detected with the empty control strains, with their mean in brackets.

CDR-L1	CDR-L2	CDR-L3	log10 Kd (nM) by replicate	control signals
KSSQSVLYESRNKASVA	WRSTRES	QQYHRLPLD	n.d. n.d. n.d.	0/9
KSSQSVLYESRNKNSVA	WMSTRES	QQYHRDPVS	5.79 3.95 n.d.	2/9 (3.33)
KSSQSTLYASRNKNSVA	WASTRES	QQYHREPLS	n.d. n.d. n.d.	0/9
KSSFSVLYESRNKNSVA	WASTRES	QMLHRLPLS	n.d. n.d. 4.46	0/9
KSSDSVLYESNNKNSVA	WASTREQ	QQYHRLPLS	1.71 1.89 1.75	2/9 (3.40)
QSSQSVLYRSRNKNSFA	WASTRES	QQYHRLPLS	n.d. n.d. n.d.	0/9
DSSQSVLYESRNKNSVA	WASTREN	QQYHRLPAS	2.15 n.d. n.d.	1/9 (2.34)
KSSQNVLYSSRMKNSVA	WASTRES	QQYHRLPLS	1.40 1.32 1.49	0/9
KGSQSVLYMSRNKNSVA	WASCRES	QQYHRLPLS	n.d. n.d. n.d.	0/9
KNSQSVLYESRNKNSVA	WASTREY	QQYHRLPYS	n.d. n.d. n.d.	1/9 (4.01)
KKSQSVLYEMRNKNSVA	WASVRES	QQYHRLPLS	n.d. 2.92 n.d.	0/9
ISSQSVLYESRNKNSVA	WASTRES	QQYHDIPLS	n.d. n.d. n.d.	3/9 (4.09)
KSSQSVLYEERCKNSVA	WASTRES	QQYHRLPIS	1.37 1.17 1.78	2/9 (2.94)
KSSQSVLYESRNKNSVA	WASWRES	QQYHRLPLS	1.69 2.08 2.02	0/9
KTSQSVLYESRTKNSVA	WASTRES	QQYHGLPLS	1.52 1.53 1.62	3/9 (3.81)
KSSQSVLYESRNKNSVA	WSSQRES	QQYMRLPLS	1.57 2.08 1.83	0/9
KSPQSVLYESRCKNSYA	WASTRES	QQYHRLPLS	4.63 4.04 n.d.	0/9
KSSQSPLYDSRNKNSVA	WASTRES	QQYHFLPLS	1.34 1.47 1.68	1/9 (2.84)
KSSQSVLYESRNENSVA	WASTRES	QWYHRLPTS	0.76 1.25 0.97	0/9
KSKQSVLLESWNKNSVA	WASTRES	QQYHRLPLS	1.60 1.56 1.64	6/9 (4.52)
KSSQSVLYESRNKNSVA	WASERES	QQYGRLPLS	0.62 0.92 0.81	4/9 (4.75)
KSSQSVMYESRNKNSVA	WMSTRES	QQYHRLPLV	2.59 2.50 2.25	0/9
KSSQSNHYESRNKNSVA	FASTRES	QQYHRLPLS	2.34 2.23 2.08	0/9
KSSQCVLYESRNKNSLA	WASTRES	QQYHRLPLS	2.98 3.02 3.12	5/9 (4.48)
KSSQSVLYESYNKNPVA	WASTRES	QQYSRLPLS	n.d. n.d. n.d.	0/9
KLSQSVLVESRNKNSVA	WASGRES	QQYHRLPLS	0.49 0.73 0.76	2/9 (5.18)
KSSQSVLYESRNKNSMA	WASTRES	QQEGRLPLS	n.d. 1.70 n.d.	0/9
KSTCSVLNESRNKNSVA	WASTRES	QQYHRLPLS	1.91 2.29 2.09	3/9 (4.51)
KSSQSVLYESRNKNSVA	WASTTSS	QFYHRLPLS	4.18 2.99 4.43	3/9 (4.59)
PSSQSVLYESRNKNSVA	WASTRES	QQYHRTPLS	n.d. n.d. 4.87	3/9 (4.75)
KSKQSELYESRNKNSVA	WASTRES	QRYHRLPLS	1.10 1.21 1.71	1/9 (3.42)
KSSQSVLQESLNKNSVA	WASTRES	QQYHRLPLS	-0.13 0.24 0.21	0/9
KSSQSVLYELRNKNSVA	MASTRES	QQQHRLPLS	n.d. n.d. n.d.	3/9 (5.05)
KSSQICLYESRNKNSVA	WASTRES	QQYHRLPLI	n.d. n.d. n.d.	0/9
LSSQSVLYESRNKNSVA	WASTREI	QQYHRLPLG	1.14 1.28 1.35	5/9 (4.42)
KSSQSNLYESRNKNSVA	WASTRES	QQYHDLPLP	n.d. n.d. n.d.	0/9
KSSQSVLYEVRNVNSVL	WASTRES	QQYHRLPLS	3.29 n.d. n.d.	1/9 (2.55)
KSSGSVLYESRNKNSQA	WASTRES	QQYHRLVLS	4.54 3.56 n.d.	4/9 (4.14)
PSSQSVLYESRNVNSVA	WASTRES	QQYHRLPLW	n.d. 3.88 n.d.	2/9 (3.79)
KSSQKVLYESRNKFSVA	WASTRES	QQYHRAPLS	3.96 2.63 4.75	2/9 (3.86)
KSSQSVLYESRAKNSVA	WASTDES	QQYHRLPLS	n.d. n.d. n.d.	0/9
LSSQSVDYESRNKNSVA	WASTRES	GQYHRLPLS	1.54 1.85 1.70	5/9 (4.68)
KSSQSVLYESENKNSVA	WAFTDES	QQYHRLPLS	3.32 4.22 n.d.	6/9 (4.07)
KSSQSVLYESRNKNQVA	WASLRES	QQYHRLPTS	4.82 n.d. 4.27	7/9 (4.25)
KSSQSYLEESRNKNSVA	WASCRES	QQYHRLPLS	0.95 1.02 1.27	1/9 (3.99)
KSSQSVCYEQRNKNSVA	WASTRES	QQYQRLPLS	0.94 0.92 0.92	2/9 (4.15)
SSSQSVLCESRNKNKVA	WASTRES	QQYHRLPLS	n.d. n.d. n.d.	1/9 (3.39)
KSSQSVLYESRNKNSVN	HASTKES	QQYHRLPLS	n.d. 3.06 n.d.	2/9 (3.01)
KSSQSVVYESRNKNSVA	WASTAES	QQVHRLPLS	n.d. n.d. n.d.	0/9
KSSFSVLYESRNKNSVA	WASTRES	GQYFRLPLS	3.92 4.80 n.d.	0/9
KSFPSVLYEWRNKNSVA	WASTRES	QQYHRLPLS	2.58 2.15 3.56	1/9 (3.68)
KSSQSVLYESRNKQSVA	CSSTRES	QQYHRLPLS	3.14 2.77 3.41	0/9

For reference, 5 entries of the list once more:

CDR-L1	CDR-L2	CDR-L3	log10 Kd (nM) by replicate	control signals
KSSQSVLYESRNKASVA	WRSTRES	QQYHRLPLD	n.d. n.d. n.d.	0/9
KSSQSVLYESENKNSVA	WAFTDES	QQYHRLPLS	3.32 4.22 n.d.	6/9 (4.07)
KTSQSVLYESRTKNSVA	WASTRES	QQYHGLPLS	1.52 1.53 1.62	3/9 (3.81)
KSSQSVLYESRNKNSVA	WMSTRES	QQYHRDPVS	5.79 3.95 n.d.	2/9 (3.33)
KSSQSVLYEVRNVNSVL	WASTRES	QQYHRLPLS	3.29 n.d. n.d.	1/9 (2.55)